Measurements from ChEMBL document CHEMBL6087444, “Synthesis and Evaluation of Halogenated Pralidoximes in Reactivation of Organophosphate-Inhibited Cholinesterases” (2024).

Amino acid sequences for entries named in this document (tags omitted). A change or cut given only in a name is not applied to a line headed by its entry.
UniProt P06276, whole entry, looked up: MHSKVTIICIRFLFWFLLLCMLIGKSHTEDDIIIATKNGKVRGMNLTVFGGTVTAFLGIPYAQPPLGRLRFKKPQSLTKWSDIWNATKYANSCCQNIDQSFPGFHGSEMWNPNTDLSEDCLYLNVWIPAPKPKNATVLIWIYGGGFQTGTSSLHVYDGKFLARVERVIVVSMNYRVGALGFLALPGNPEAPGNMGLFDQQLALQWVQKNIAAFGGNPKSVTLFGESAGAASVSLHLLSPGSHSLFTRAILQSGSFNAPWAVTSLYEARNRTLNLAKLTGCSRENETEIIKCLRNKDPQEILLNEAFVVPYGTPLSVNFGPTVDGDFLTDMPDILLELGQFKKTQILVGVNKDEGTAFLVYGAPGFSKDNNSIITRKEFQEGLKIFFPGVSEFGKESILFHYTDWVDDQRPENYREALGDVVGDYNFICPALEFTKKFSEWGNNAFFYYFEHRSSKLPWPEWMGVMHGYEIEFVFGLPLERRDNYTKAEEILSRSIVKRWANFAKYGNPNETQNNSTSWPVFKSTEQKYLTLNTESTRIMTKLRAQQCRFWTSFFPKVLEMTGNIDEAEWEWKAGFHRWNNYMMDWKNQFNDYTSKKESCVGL
UniProt P22303: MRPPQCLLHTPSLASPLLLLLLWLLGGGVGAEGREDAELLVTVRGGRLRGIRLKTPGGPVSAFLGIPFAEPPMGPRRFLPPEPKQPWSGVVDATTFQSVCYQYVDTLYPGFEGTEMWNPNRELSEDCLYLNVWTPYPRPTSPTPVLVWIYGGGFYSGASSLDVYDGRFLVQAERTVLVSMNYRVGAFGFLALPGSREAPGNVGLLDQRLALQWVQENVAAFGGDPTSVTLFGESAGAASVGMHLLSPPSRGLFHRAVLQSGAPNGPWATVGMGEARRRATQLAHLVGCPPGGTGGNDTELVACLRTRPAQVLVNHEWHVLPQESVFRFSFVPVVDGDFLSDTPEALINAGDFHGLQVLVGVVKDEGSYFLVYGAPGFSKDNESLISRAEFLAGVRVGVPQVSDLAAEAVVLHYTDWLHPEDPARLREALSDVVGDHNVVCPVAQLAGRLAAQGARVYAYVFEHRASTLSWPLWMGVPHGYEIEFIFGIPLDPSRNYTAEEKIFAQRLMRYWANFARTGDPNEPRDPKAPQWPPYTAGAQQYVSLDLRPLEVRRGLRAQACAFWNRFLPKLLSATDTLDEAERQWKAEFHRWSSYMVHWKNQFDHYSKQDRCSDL

Legend:
[1] = molecular target: Cholinesterase (Homo sapiens) (UniProt P06276); experiment: Reactivation of POX-inhibited human recombinant BChE activity using BTCI as substrate at 1 to 1200 uM incubated for 0.5 to 15 mins; conditions: dose 1-1200 µM, time 0.5-15 min
[2] = molecular target: Cholinesterase (Homo sapiens) (UniProt P06276); experiment: Reactivation of NEMP-inhibited human recombinant BChE activity using BTCI as substrate at 1 to 1200 uM incubated for 0.5 to 15 mins; conditions: filed as activator, dose 1-1200 µM, time 0.5-15 min
[3] = molecular target: Acetylcholinesterase (Homo sapiens) (UniProt P22303); experiment: Reactivation of NEDPA-inhibited human recombinant AChE activity using ATCI as substrate at 1 to 1200 uM incubated for 0.5 to 15 mins; conditions: filed as activator, dose 1-1200 µM, time 0.5-15 min
[4] = molecular target: Acetylcholinesterase (Homo sapiens) (UniProt P22303); experiment: Reactivation of POX-inhibited human recombinant AChE activity using ATCI as substrate at 10 uM preincubated for 15 mins followed by substrate addition by absorbance based analysis; conditions: filed as activator
[5] = molecular target: Acetylcholinesterase (Homo sapiens) (UniProt P22303); experiment: Reactivation of NEMP-inhibited human recombinant AChE activity using ATCI as substrate at 10 uM preincubated for 15 mins followed by substrate addition by absorbance based analysis; conditions: filed as activator
[6] = molecular target: Acetylcholinesterase (Homo sapiens) (UniProt P22303); experiment: Reactivation of NIMP-inhibited human recombinant AChE activity using ATCI as substrate at 10 uM preincubated for 15 mins followed by substrate addition by absorbance based analysis; conditions: filed as activator
[7] = molecular target: Cholinesterase (Homo sapiens) (UniProt P06276); experiment: Reactivation of POX-inhibited human recombinant BChE activity using BTCI as substrate at 100 uM preincubated for 15 mins followed by substrate addition by absorbance based analysis; conditions: filed as activator
[8] = molecular target: Acetylcholinesterase (Homo sapiens) (UniProt P22303); experiment: Reactivation of NEDPA-inhibited human recombinant AChE activity using ATCI as substrate at 10 uM preincubated for 15 mins followed by substrate addition by absorbance based analysis; conditions: filed as activator
[9] = molecular target: Cholinesterase (Homo sapiens) (UniProt P06276); experiment: Reactivation of NEMP-inhibited human recombinant BChE activity using BTCI as substrate at 100 uM preincubated for 15 mins followed by substrate addition by absorbance based analysis; conditions: filed as activator
[10] = molecular target: Cholinesterase (Homo sapiens) (UniProt P06276); experiment: Reactivation of NIMP-inhibited human recombinant BChE activity using BTCI as substrate at 100 uM preincubated for 15 mins followed by substrate addition by absorbance based analysis
[11] = molecular target: Cholinesterase (Homo sapiens) (UniProt P06276); experiment: Reactivation of NEDPA-inhibited human recombinant BChE activity using BTCI as substrate at 100 uM preincubated for 15 mins followed by substrate addition by absorbance based analysis; conditions: filed as activator
[12] = molecular target: Cholinesterase (Homo sapiens) (UniProt P06276); experiment: Reactivation of NEMP-inhibited human recombinant BChE activity using BTCI as substrate assessed as fold change at 100 uM preincubated for 15 mins followed by substrate addition by absorbance based analysis relative to 2-PAM; conditions: filed as activator
[13] = molecular target: Acetylcholinesterase (Homo sapiens) (UniProt P22303); experiment: Reactivation of NIMP-inhibited human recombinant AChE activity using ATCI as substrate at low concentration preincubated for 15 mins followed by substrate addition by absorbance based analysis relative to control; design: scale not given: the % may be the effect or the level left; conditions: filed as activator
[14] = molecular target: Acetylcholinesterase (Homo sapiens) (UniProt P22303); experiment: Reactivation of POX-inhibited human recombinant AChE activity using ATCI as substrate at 1 to 1200 uM incubated for 0.5 to 15 mins; conditions: filed as activator, dose 1-1200 µM, time 0.5-15 min
[15] = molecular target: Acetylcholinesterase (Homo sapiens) (UniProt P22303); experiment: Reactivation of NEMP-inhibited human recombinant AChE activity using ATCI as substrate at 1 to 1200 uM incubated for 0.5 to 15 mins; conditions: filed as activator, dose 1-1200 µM, time 0.5-15 min
[16] = molecular target: Acetylcholinesterase (Homo sapiens) (UniProt P22303); experiment: Reactivation of NIMP-inhibited human recombinant AChE activity using ATCI as substrate at 1 to 1200 uM incubated for 0.5 to 15 mins; conditions: filed as activator, dose 1-1200 µM, time 0.5-15 min

Compound: C[n+]1cccc(Br)c1/C=N/O
- Activity [1]: inactive
- Activity [2]: Active
- Activity [3]: Active; Faster Reactivation Observed
- Activity [4]: Active
- Activity [5]: Active
- Activity [6]: Active
- Activity [7]: Active
- Activity [8]: Active
- Activity [9]: Active; Compound Showed Highest Activity
- Activity [10]: Not active; Comparable To 2-Pam
- Activity [11]: Active; Compound Showed Highest Activity
- fold change (FC) [12]: 2

Compound: Nc1ccc2cc[n+](CCCCCc3ccc(O)c(/C=N/O)n3)c(-c3ccccc3)c2c1
- Activity [13]: > 60%

Compound: C[n+]1cc(Cl)ccc1/C=N/O
- Activity [4]: Active
- Activity [5]: Active
- Activity [6]: Active
- Activity [7]: Active
- Activity [8]: Active
- Activity [9]: Active; Slightly Comparable Ability To 2-Pam
- Activity [10]: Not active; Comparable To 2-Pam
- Activity [11]: Active

Compound: C[n+]1cccc(F)c1/C=N/O
- Activity [14]: Active
- Activity [1]: inactive
- Activity [15]: Active
- Activity [16]: Active; Better Ability Than 2-Pam
- Activity [2]: Active
- Activity [3]: Active; Faster Reactivation Observed
- Activity [4]: Active; Compound Showed Highest Activity
- Activity [5]: Active; Compound Showed Highest Activity
- Activity [6]: Active; Compound Showed Highest Activity
- Activity [7]: Active
- Activity [8]: Active; Compound Showed Highest Activity
- Activity [10]: Not active; Comparable To 2-Pam
- fold change (FC) [12]: 2

Compound: C[n+]1cccc(Cl)c1/C=N/O
- Activity [1]: inactive
- Activity [15]: Active
- Activity [3]: Active; Faster Reactivation Observed
- Activity [4]: Active
- Activity [5]: Active
- Activity [6]: Active
- Activity [7]: Active
- Activity [8]: Active
- Activity [10]: Not active; Comparable To 2-Pam
- fold change (FC) [12]: 2

Compound: C[n+]1cc(Br)ccc1/C=N/O
- Activity [4]: Active
- Activity [5]: Active
- Activity [6]: Active
- Activity [7]: Active
- Activity [8]: Active
- Activity [9]: Active; Slightly Comparable Ability To 2-Pam
- Activity [10]: Not active; Comparable To 2-Pam
- Activity [11]: Active

Compound: O/N=C/c1nc(CCCCC[n+]2ccc3ccccc3c2-c2ccccc2)ccc1O
- Activity [13]: > 60%

Compound: C[n+]1cc(F)ccc1/C=N/O
- Activity [15]: Active
- Activity [3]: Active; Faster Reactivation Observed
- Activity [4]: Active
- Activity [5]: Active
- Activity [6]: Active
- Activity [7]: Active
- Activity [8]: Active
- Activity [9]: Active; Slightly Comparable Ability To 2-Pam
- Activity [10]: Not active; Comparable To 2-Pam
- Activity [11]: Active

Active and inactive are the calls of the source. The rule behind the calls is not given here.
